We go through 1 substance from patent US5880095A, “Cholesteryl ester transfer protein inhibitor peptides and prophylactic and therapeutic anti-arteriosclerosis agents” (LG Chemical Ltd., priority 1994, dated 1999).

The test has as its target T1, pure CETP separated from human blood plasma (Homo sapiens, UniProt P11597).
T1 construct: Pure CETP was separated from human blood plasma in accordance with the method of Hesler et al; from tissue; host or cells: human blood plasma
T1 sequence (P11597 18-493): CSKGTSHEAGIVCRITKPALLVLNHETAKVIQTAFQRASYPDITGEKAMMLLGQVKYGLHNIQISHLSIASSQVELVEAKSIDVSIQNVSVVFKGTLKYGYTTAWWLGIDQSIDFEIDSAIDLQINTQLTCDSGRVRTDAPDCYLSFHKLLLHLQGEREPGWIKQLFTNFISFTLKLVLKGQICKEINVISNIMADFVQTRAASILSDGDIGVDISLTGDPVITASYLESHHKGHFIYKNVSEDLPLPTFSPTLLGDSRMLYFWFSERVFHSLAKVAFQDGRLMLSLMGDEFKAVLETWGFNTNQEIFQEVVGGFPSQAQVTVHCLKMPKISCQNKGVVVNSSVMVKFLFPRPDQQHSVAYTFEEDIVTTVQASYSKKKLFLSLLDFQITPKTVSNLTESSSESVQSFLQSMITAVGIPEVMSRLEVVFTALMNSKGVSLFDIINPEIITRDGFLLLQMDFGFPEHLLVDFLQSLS
Nature of the test: Determination of CETP inhibitory activity (CE transfer from [3H]-HDL to LDL), pure CETP as CETP source. The format is biochemical. To be noted: control experiment. The procedure: LDL and [^3 H]-cholesteryl oleate-labelled HDL were synthesized in accordance with the method of Morton et al.(see, J. Biol. Chem., 256, 11992-11995(1981)) and then separated using an ultracentrifuge(Beckman XL 70). LDL and [^3 H]-HDL, thus prepared, were used as a CE-receptor and a CE-donor, respectively.
Pure CETP was separated from human blood plasma in accordance with the method of Hesler et al.(see, J. Biol. Chem., 262, 2275-2282(1987)) and used as a CETP source.
0.3 ml of LDL, 0.05 ml of [^3 H]-HDL and 0.05 ml of the CETP source, which were prepared above, and 0.05 ml of a CETP inhibitor were added into a 1.5 ml tube and reacted at 37° C. for 3 hours.
When the reaction was finished, LDL was precipitated in accordance with the method of Morton et al.(see, Biochim. Biophys. Acta, 663, 350-355(1981)). The amount of the isotope transferred to LDL was determined with a liquid scintillation counter(Packard Tricarb 1600 TR) using a part of the supernatant, and the activity of CETP was calculated therefrom.
The inhibitory activity of the CETP inhibitor was calculated from the CETP activities of the experimental group, in which the CETP inhibitor was added, and that of control group, in which no CETP inhibitor was added, as follows: [formula]

In the case of human albumin [reference compound], the “CETP inhibitory activity (FIG. 4, curve C)” value is given as “hardly exhibits CETP inhibitory activity”.
